The values that follow come from US5696239A, “Conjugates possessing ortho ligating functionality and complexes thereof” (The Dow Chemical Company, priority 1995, dated 1997).

This data set can be described thus: Percent complex determination, samarium complexes (Sephadex C-25 cation exchange). It is filed as physicochemical. As to the method:
A disposable 10 ml plastic (Biorad) column was filled with 1 to 2 ml of water-swelled Sephadex™ C-25 cation exchange resin. The water was pressure eluted to the top of the resin. Fifteen μl of the complex (or more if counts were low) were added to the top of the resin. This was followed by 2 ml of 4:1 (V:V) isotonic saline:conc. ammonium hydroxide solution as an eluent which was allowed to drip into a counting tube. This was also pressure eluted to the top of the resin. An additional 2 ml of the eluent were added and the column pressure eluted to remove all liquid. The dried resin was then placed in a third counting tube and the three tubes counted on a NaI well counter using a Canberra multichannel analyzer linked to a computer. The percent complex was determined by dividing the number of counts in the two elutions by the total counts in the elutions plus the column, all times 100.
Percent complex determination was made in the same manner as for the yttrium complex.

For “2,6-BIS{[(2-{[BIS(CARBOXYMETHYL)]AMINO}ETHYL)(CARBOXYMETHYL)]AMINOMETHYL}- 4-(AMINO)PHENOL, SAMARIUM COMPLEX [Example XX]”, the “percent complex, Sm” value runs as follows: (after purification by anion exchange chromatography) 95%; (as prepared, pH 7, before purification) 68%.
